Earlier results in patent US20240408074A1, “METHODS FOR THE TREATMENT AND PREVENTION OF NON-VIRAL TICK-BORNE DISEASES AND SYMPTOMS THEREOF OF” (60 DEGREES PHARMACEUTICALS LLC, priority 2023, published 2024).

Test system: P. falciparum
Settings: in vivo; cited from earlier work

COc1cc(NC(C)CCCN)c2ncccc2c1 (stereo not shown) [primaquine]
activity against the blood stages of P. falciparum: only weak activity
